# Biological target: T1, human orexin-2 receptor (Homo sapiens, UniProt O43614)
# Sequences of proteins named here, by UniProt entry; tags and fusion partners are left off.
# UniProt O43614, whole entry: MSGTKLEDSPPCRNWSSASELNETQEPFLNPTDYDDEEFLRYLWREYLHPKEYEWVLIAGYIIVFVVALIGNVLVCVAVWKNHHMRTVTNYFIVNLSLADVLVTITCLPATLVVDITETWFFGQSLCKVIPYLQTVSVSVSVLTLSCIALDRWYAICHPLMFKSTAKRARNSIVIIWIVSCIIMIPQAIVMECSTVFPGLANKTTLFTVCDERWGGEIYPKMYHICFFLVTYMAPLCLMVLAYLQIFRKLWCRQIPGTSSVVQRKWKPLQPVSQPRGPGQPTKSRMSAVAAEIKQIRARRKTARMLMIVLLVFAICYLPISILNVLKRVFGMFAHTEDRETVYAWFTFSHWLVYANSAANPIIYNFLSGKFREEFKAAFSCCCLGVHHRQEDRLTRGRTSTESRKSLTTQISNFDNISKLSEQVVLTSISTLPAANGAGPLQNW
# T1 construct: expressed in transfected cells; host or cells: CHO cells (G418 selection)
# Experiment: Intracellular calcium measurements (FLIPR), CHO cells, 3 nM orexin-A as agonist
# Format: cell-based
# Description: Chinese hamster ovary (CHO) cells expressing the human orexin-1 receptor and the human orexin-2 receptor, respectively, are grown in culture medium (Ham F-12 with L-Glutamine) containing 300 µg/ml G418, 100 U/ml penicillin, 100 µg/ml streptomycin and 10 % heat inactivated fetal calf serum (FCS). The cells are seeded at 20'000 cells / well into 384-well black clear bottom sterile plates (Greiner). The seeded plates are incubated overnight at 37°C in 5% CO2.
# Human orexin-A as an agonist is prepared as 1 mM stock solution in MeOH: water (1:1), diluted in HBSS containing 0.1 % bovine serum albumin (BSA), NaHCO3: 0.375g/l and 20 mM HEPES for use in the assay at a final concentration of 3 nM. […]
# Within the Fluorescent Imaging Plate Reader (FLIPR Tetra, Molecular Devices), antagonists are added to the plate in a volume of 10 µl/well, incubated for 10 min and finally 10 µl/well of agonist is added. Fluorescence is measured for each well at 1 second intervals, and the height of each fluorescence peak is compared to the height of the fluorescence peak induced by 3 nM orexin-A with vehicle in place of antagonist. […] The calculated IC50 values may fluctuate depending on the daily cellular assay performance. […]
compound,measurement,value
"COc1ccc(C[C@H]2c3cc(OC)c(OC)cc3CCN2[C@@H](C(=O)NC(C)C)c2ccccc2)cc1OC [COMPOUND, (R)-2-[(S)-1-(3,4-dimethoxy-benzyl)-6,7-dimethoxy-3,4-dihydro-1H-isoquinolin-2-yl]-N-isopropyl-2-phenyl-acetamide]",IC50,> 500 nM
